Chains of the proteins cited; added tags and fusions are not shown.
UniProt P29371, whole entry H316W: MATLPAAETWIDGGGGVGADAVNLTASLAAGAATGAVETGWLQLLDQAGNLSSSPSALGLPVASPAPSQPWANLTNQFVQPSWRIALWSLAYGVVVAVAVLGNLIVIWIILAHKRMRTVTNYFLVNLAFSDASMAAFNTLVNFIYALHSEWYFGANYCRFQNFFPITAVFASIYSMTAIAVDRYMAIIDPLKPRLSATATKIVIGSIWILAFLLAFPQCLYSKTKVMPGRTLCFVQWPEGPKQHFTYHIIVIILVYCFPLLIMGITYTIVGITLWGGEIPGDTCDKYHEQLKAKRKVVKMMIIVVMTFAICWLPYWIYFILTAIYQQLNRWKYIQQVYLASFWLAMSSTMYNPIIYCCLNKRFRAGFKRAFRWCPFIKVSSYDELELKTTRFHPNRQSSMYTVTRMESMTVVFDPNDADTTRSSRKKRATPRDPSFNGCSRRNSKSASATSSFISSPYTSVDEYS
UniProt P29371, whole entry H316F: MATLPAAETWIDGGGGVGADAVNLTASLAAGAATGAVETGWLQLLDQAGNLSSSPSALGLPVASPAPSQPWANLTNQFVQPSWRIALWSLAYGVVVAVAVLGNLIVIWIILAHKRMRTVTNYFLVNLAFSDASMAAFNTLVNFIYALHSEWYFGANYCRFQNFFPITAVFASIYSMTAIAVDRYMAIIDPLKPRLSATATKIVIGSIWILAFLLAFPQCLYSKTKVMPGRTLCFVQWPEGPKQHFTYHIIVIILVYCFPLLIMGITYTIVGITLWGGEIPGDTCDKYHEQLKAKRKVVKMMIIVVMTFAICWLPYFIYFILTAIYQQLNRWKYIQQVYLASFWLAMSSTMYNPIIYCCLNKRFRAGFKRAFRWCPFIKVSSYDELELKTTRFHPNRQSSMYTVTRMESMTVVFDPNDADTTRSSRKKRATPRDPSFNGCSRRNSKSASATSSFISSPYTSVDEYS
UniProt P29371, whole entry Y247W: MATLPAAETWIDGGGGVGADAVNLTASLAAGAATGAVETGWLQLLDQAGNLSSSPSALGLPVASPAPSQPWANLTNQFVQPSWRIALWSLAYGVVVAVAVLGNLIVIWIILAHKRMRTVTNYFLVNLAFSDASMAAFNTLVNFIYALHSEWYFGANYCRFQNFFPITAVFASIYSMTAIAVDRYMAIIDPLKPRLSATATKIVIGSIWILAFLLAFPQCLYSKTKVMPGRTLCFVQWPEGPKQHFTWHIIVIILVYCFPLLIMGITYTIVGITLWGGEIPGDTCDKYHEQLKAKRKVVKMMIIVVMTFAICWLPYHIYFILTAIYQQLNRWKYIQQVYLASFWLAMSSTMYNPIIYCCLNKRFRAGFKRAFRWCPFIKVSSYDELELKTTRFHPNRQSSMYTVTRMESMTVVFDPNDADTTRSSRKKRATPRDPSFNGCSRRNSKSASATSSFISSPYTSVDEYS
UniProt P29371, whole entry Y315F: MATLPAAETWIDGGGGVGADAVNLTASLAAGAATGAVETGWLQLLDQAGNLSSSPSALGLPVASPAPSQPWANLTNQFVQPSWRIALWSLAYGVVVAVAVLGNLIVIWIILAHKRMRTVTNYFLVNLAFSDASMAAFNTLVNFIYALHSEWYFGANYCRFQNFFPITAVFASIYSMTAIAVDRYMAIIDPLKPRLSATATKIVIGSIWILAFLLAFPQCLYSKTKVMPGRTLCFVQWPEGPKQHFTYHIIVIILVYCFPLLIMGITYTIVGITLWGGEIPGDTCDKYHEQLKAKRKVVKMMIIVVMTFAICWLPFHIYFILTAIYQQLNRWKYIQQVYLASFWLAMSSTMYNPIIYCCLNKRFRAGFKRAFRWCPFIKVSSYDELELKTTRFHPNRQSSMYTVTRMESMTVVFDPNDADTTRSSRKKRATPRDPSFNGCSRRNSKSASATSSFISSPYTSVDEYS
UniProt P29371, whole entry Y247F: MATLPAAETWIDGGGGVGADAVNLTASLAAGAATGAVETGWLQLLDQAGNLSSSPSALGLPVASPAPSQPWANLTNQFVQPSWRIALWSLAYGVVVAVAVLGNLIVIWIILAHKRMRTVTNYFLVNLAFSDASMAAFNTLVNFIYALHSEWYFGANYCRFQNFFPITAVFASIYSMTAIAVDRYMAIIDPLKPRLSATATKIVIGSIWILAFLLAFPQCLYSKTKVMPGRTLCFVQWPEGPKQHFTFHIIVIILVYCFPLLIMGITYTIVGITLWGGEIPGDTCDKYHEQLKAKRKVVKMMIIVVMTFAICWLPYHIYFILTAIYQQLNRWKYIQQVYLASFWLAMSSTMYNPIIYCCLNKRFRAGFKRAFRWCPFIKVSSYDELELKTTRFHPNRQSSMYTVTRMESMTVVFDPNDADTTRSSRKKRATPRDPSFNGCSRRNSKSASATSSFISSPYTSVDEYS

According to ChEMBL document CHEMBL2203099, “Identification of a crucial amino acid in the helix position 6.51 of human tachykinin neurokinin 1 and 3 receptors contributing to the insurmountable mode of antagonism by dual NK₁/NK₃ antagonists” (J Med Chem, 2012):

Key:
Type in all cases: cell-based
Neuromedin-K receptor [1] = molecular target: T1, Neuromedin-K receptor (Homo sapiens, UniProt P29371, H316W); experiment: Displacement of radioligand [3H]osanetant at human NK3 H316W mutant expressed in HEK293 cells
Neuromedin-K receptor [2] = molecular target: Neuromedin-K receptor (Homo sapiens, UniProt P29371, H316F); experiment: Displacement of radioligand [3H]osanetant at human NK3 H316F mutant expressed in HEK293 cells
Neuromedin-K receptor [3] = molecular target: Neuromedin-K receptor (Homo sapiens, UniProt P29371, Y247W); experiment: Displacement of radioligand [3H]osanetant at human NK3 Y247W mutant expressed in HEK293 cells
Neuromedin-K receptor [4] = molecular target: T2, Neuromedin-K receptor (Homo sapiens, UniProt P29371, Y315F); experiment: Displacement of radioligand [3H]osanetant at human NK3 Y315F6.51 mutant expressed in HEK293 cells
Neuromedin-K receptor [5] = molecular target: Neuromedin-K receptor (Homo sapiens, UniProt P29371, Y247F); experiment: Competitive inhibition at human NK3 Y247F5.38 mutant expressed in HEK293 cells assessed as decrease in [MePhe7]NKB-induced [3H]IP accumulation after 20 mins; settings: read-out: pA2 (converted)
Neuromedin-K receptor [6] = molecular target: T1, Neuromedin-K receptor; experiment: Competitive inhibition at human NK3 H316W6.52 mutant expressed in HEK293 cells assessed as decrease in [MePhe7]NKB-induced [3H]IP accumulation after 20 mins; settings: read-out: pA2 (converted)
Neuromedin-K receptor [7] = molecular target: T2, Neuromedin-K receptor; experiment: Competitive inhibition at human NK3 Y315F6.51 mutant expressed in HEK293 cells assessed as decrease in [MePhe7]NKB-induced [3H]IP accumulation after 20 mins; settings: read-out: pA2 (converted)
Procedure, shortened: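 HEK293 cells transiently expressing human NK3 WT or mutant, labeled with myo-[³H]inositol in LiCl buffer. Antagonist preincubated 20 min at 37 °C, then [MePhe⁷]NKB (0.01 nM–1 μM) added for 45 min at 37 °C. [³H]IP read by SPA beads. Schild analysis of EC50 shift and Emax depression across increasing antagonist concentrations gives pA2, slope and mode of antagonism.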

- Ki (Neuromedin-K receptor [1]): 122 nM
- Ki (Neuromedin-K receptor [2]): 10.6 nM
- Ki (Neuromedin-K receptor [3]): 37.2 nM
- Ki (Neuromedin-K receptor [4]): 1.7 nM
- Kb (Neuromedin-K receptor [5]): 2.88 nM
- Kb (Neuromedin-K receptor [6]): 229 nM
- Kb (Neuromedin-K receptor [7]): 2.34 nM
SMILES: CC[C@H](NC(=O)c1c(O)c(-c2ccccc2)nc2ccccc12)c1ccccc1 [TALNETANT]
